Antibody variant affinities, Ab-14 heavy chain, assay B

Data: MIT Lincoln Laboratory AlphaSeq set, Li et al. 2023, doi:10.1038/s41467-023-39022-2, as distributed in FLAb.

Antigen: PDVDLGDISGINAS, a 14-residue peptide of the SARS-CoV-2 spike HR2 region.

Each scFv is VH, a (GGGGS)3 linker, VL, as in the parent Ab-14, and differs from it in the CDRs of the heavy chain only.
VH: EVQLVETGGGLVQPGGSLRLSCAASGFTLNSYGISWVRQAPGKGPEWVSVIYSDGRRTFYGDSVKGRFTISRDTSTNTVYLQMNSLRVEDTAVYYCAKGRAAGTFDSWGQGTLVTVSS
VL: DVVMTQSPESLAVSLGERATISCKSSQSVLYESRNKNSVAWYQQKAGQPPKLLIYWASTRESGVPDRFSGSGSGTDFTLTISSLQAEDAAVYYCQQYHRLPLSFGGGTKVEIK

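The variants were designed computationally from a first round of random CDR variants and then made and measured. Several design methods are mixed in this list. Affinity was read by AlphaSeq, a pooled yeast mating assay with surface-displayed partners. Binding brings cells together so that they mate, and sequencing counts the barcode pairs among the diploids. A regression on co-assayed BCL2-family reference pairs converts the normalised counts of each replicate to an apparent Kd. Each pool was mated in six replicate cultures.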

The parent's heavy chain CDRs are GFTLNSYGIS, VIYSDGRRTFYGDSVK, GRAAGTFDS; each variant's own CDRs replace them letter for letter.
Kd is apparent (estimated from mating counts) and averaged on the log scale over replicates with a signal. Smaller is tighter.
"not detected" means that the variant was in the library but no mating with the target was seen in any replicate; the authors take this as a sign of poor binding, and no number exists.
Of ten entries with the parent sequence, four were seen in most replicates (averages 2.2 nM to 240 nM), three in one and three in none, so single entries are noisy.

CDR-H1,CDR-H2,CDR-H3,Kd,replicates with signal,empty controls
GFTLNDYGIS,VIYSDGRRTFYGDSVK,GRRAGTFDS,4.6 nM,6/6,1/18
GFDLNEYGVS,VIYADGQRRAYAANFK,GVNVGGLDI,not detected,0/6,0/18
GFDLDEYGIS,VIYADGKRTAYSDSVK,GSNAGTFDV,300 pM,6/6,0/18
GFGLNDYGIS,VIYSDGRRTFYIDHVK,GKAAGTFDS,not detected,0/6,0/18
GFDLNEYGIS,VIYADGMRTAYTDSVK,GNNAGTFDT,1.6 nM,6/6,0/18
GFDLNEYGIS,VIYADGMRKAYADDVK,GNVAGTFDM,2.1 nM,6/6,0/18
GFTLNSYGIS,VIYADGRRTFYIDSVK,GRAAGGFDS,not detected,0/6,0/18
GFGLNSYGIS,VIYSDGRRTFYIDSVK,GQAAGTFDQ,9.3 nM,4/6,0/18
GFDINEYGIS,VIYADGRRTFYADSVK,GTNAGTFDV,470 pM,6/6,0/18
GFTLRDYGIS,VIYSDGRRTFYTDSVK,GEASGTFDS,190 nM,6/6,1/18
GFSFNEYGIS,VIYADGKRTAYANNVK,GGKDAAFDI,950 nM,2/6,1/18
GFDLNSYGIS,VIYSDGRRTFYDDSVK,GRAAGHFNS,not detected,0/6,0/18
GDVLDEYGIS,VIYADGRRTAYTQDVK,GDKAGSLSV,not detected,0/6,0/18
GFCLNSYGIS,VIYSDGRRTFYNDSVK,GRAAGNFDS,not detected,0/6,0/18
GDNLEEYGIS,VIYADGFRSHYAEKVK,GQQGGFFIK,not detected,0/6,1/18
GFDLNEYGIS,VIYADGRRTFYADSVK,GQLAGTFDM,160 pM,6/6,0/18
GFSLDEYGIS,VIYADGRRTFYADSVK,GNTAGTFDS,410 pM,6/6,1/18
GFSLNNYGIS,VIYSDGRRTFYGDSVK,GRNAGTFDS,2.4 nM,6/6,0/18
GFDLNSYGIS,VIYSDGRRTFYADNVK,GRTAGTFDS,710 pM,6/6,0/18
GFSLNSYGIS,VIYSDGRRTFYGDSVK,GWTAGTFDS,3.1 nM,6/6,0/18
GFDLDEYGIS,VIYADGKRTYYADSVK,GNVAGTFDQ,190 pM,6/6,0/18
GFTLNSYGIS,VIYSDGRRTFYGDSVK,GRAAGTSDQ,not detected,0/6,1/18
GFALNSYGIS,VIYSDGRRTFYKDSVK,GRAAGTFDS,not detected,0/6,0/18
GFDLNEYGIS,VIYADGQRTAYTDSVK,GNVAGTFDV,140 pM,6/6,0/18
GFDLNEYGIS,VIYADGKRTFYADSVK,GEIAGTFDF,1.4 nM,6/6,0/18
GFTLNDYGIS,VIYSDGRRTQYIDSVK,GRAAGTVDS,not detected,0/6,2/18
GFDLNSYGIS,VIYSDGRRTFYQDSVK,GAAAGTFDS,1.6 nM,6/6,0/18
GFCLNSYGIS,VIYSDGRRTFYSDSVK,GRAAGTFDT,not detected,0/6,0/18
GFDLNEYGIS,VIYADGVRTAYADSVK,GNIAGTFDV,380 pM,6/6,0/18
GFTLNSYGIS,VIYSDGRRTFYGDSVK,GRAAGTSDS,not detected,0/6,0/18
GFTLLSYGIS,VIYSDGCRTFYGDSFK,GRAAGTFDL,not detected,0/6,0/18
GFDLNEYGIS,VIYADGQRTYYADSVK,GEVAGTFDV,2.1 nM,6/6,0/18
GFDLNSYGIS,VIYSDGRRTFYGDSVK,GSAAGTFDV,7.3 nM,6/6,0/18
GFDLNEYGIS,VIYADGKRTAYADSVK,GTVAGTFDI,410 pM,6/6,0/18

Second part, the sequence after the result:

Kd,replicates with signal,empty controls,CDR-H1,CDR-H2,CDR-H3
270 pM,6/6,0/18,GFTLDEYGIS,VIYADGRRTFYSDSVK,GNTAGTFDV
59 nM,1/6,0/18,GFTLNSYGIS,VIYSDGRRTFYGDSFK,GGESGTFDT
4.3 nM,3/6,0/18,GFTLNNYGIS,VIYSDGRRTFYGDSVR,LRGIGTFDS
not detected,0/6,1/18,GFSILEYGIS,VIYSDGRRTAYDDSVK,GRDTGTFDS
6.0 nM,6/6,0/18,GFSLNSYGIS,VIYSDGRRTFYADSVK,GAAAGTFDS
920 pM,2/6,0/18,GFDLNSYGIS,VIYSDGRRTFYVDNVK,GRTAGTFDS
530 pM,6/6,0/18,GFDLNEYGIS,VIYADGMRTAYADDVK,GSNAGTFDL
2.0 nM,6/6,0/18,GFTLNSYGIS,VIYSDGRRTFYKDSVK,GKTAGTFDS
not detected,0/6,0/18,GFDLNEYGIS,VIYADGMRTFYADKAK,GNAGIVAEV
4.2 nM,6/6,0/18,GFDIQDYGIS,VIYADGLRTSVSTNFK,GIIAGTFTS
1.2 nM,6/6,0/18,GFDLNEYGIS,VIYADGRRTAYLDSVK,GQTAGTFDT
6.3 nM,6/6,0/18,GFSLNSYGIS,VIYSDGRRTFYGDSVK,GSACGTFDS
420 pM,6/6,1/18,GFDLNEYGIS,VIYADGMRTAYSDSVK,GVNAGTFDV
not detected,0/6,0/18,GFTLNSHGSS,VIYSDGRRTFYGDSVK,GRAAGTFDS
370 pM,6/6,0/18,GFSLNSYGIS,VIYSDGRRTFYADNVK,GREAGTFDS
not detected,0/6,1/18,GFTLNDYGIS,VIYSDGRRTFYGDSVK,GRNAGQFSS
1.3 nM,6/6,0/18,GFELNDYGIS,VIYSDGRRTFYADEVK,GRTAGTFDS
38 nM,6/6,1/18,GFTLNSYGIS,VIYSDGRRTFYADSVK,GHAAGTFDL
not detected,0/6,0/18,GFTLNSYGIS,VIYSDGFRTFYGDSVK,GRTAGTFDS
890 pM,6/6,0/18,GFDLDEYGIS,VIYADGMRTAYADDVK,GKNAGTFDV
not detected,0/6,0/18,GFTLNSYGIS,VIYSDGRRTFYYDSFK,GRAGNTFDS
2.1 nM,6/6,0/18,GFSLNSYGIS,VIYSDGRRTFYGDSVK,GKTAGTFDL
not detected,0/6,0/18,GFDLNSYGES,VKYSDGRRTFYGDSVK,GRAAGWFWS
820 pM,6/6,0/18,GFDLNEYGIS,VIYADGMRTSYADSVK,GEVAGTFDL
290 pM,6/6,0/18,GFDLDEYGIS,VIYADGVRTAYADNVK,GQVAGTFDV
not detected,0/6,0/18,GFTLNDYGIS,VIYSDGRRTQLIDSVK,GRAAGTFDS
520 pM,6/6,1/18,GFSLNEYGIS,VIYSDGRRTFYGDSVK,GREAGTFDN
680 pM,6/6,0/18,GFDLNEYGIS,VIYADGSRTFYSDSVK,GNQAGTFDM
not detected,0/6,0/18,GFTLNSYGIS,VIYSDGRRTFYGDAVK,GRADGTFDS
not detected,0/6,0/18,GFDLENYGIS,VIYADGIRKVYDQSVK,GQMGTTFYV
14 nM,5/6,0/18,GFTLNSYGIS,VIYSDGRRTFYSDSVK,GEAAGTFDF
910 pM,6/6,0/18,GFQLDEYGIS,VIYADGRRTFYQDSVK,GEVAGTFDL
not detected,0/6,0/18,GFTLNSYGIS,VIYADGRRTFYGDSVK,GRLADTFDV
not detected,0/6,0/18,GFSLNSYGIS,VIYSDGHRTFYVDSVK,GRTAGTFDS
390 pM,6/6,0/18,GFDLNNYGIS,VIYADGLRVQYENKVK,GDVAGTFDS

The opening 6 entries, copied out:

CDR-H1,CDR-H2,CDR-H3,Kd,replicates with signal,empty controls
GFTLNDYGIS,VIYSDGRRTFYGDSVK,GRRAGTFDS,4.6 nM,6/6,1/18
GFDLNEYGVS,VIYADGQRRAYAANFK,GVNVGGLDI,not detected,0/6,0/18
GFDLDEYGIS,VIYADGKRTAYSDSVK,GSNAGTFDV,300 pM,6/6,0/18
GFGLNDYGIS,VIYSDGRRTFYIDHVK,GKAAGTFDS,not detected,0/6,0/18
GFDLNEYGIS,VIYADGMRTAYTDSVK,GNNAGTFDT,1.6 nM,6/6,0/18
GFDLNEYGIS,VIYADGMRKAYADDVK,GNVAGTFDM,2.1 nM,6/6,0/18

As a blank, each scFv also met three strains without target: over all heavy chain designs, 1% of these pairings were detected, typically at 120 nM and seldom below 7.0 nM. Also given: how often the same scFv was detected with the empty control strains.
The range of this assay differs from that of the first round, and the authors advise against merging the two.
In the paper, a design with two or fewer of six values counts as a poor binder.